Results on one compound are retold here after patent US8933030B2, “Treatments for gastrointestinal disorders” (Ironwwod Pharmaceuticals, Inc., priority 2010, dated 2015).

Protein sequences, listed by entry. Tags and fused reporters are not part of them. Residues count along the entry.
UniProt P25092, 24-1073: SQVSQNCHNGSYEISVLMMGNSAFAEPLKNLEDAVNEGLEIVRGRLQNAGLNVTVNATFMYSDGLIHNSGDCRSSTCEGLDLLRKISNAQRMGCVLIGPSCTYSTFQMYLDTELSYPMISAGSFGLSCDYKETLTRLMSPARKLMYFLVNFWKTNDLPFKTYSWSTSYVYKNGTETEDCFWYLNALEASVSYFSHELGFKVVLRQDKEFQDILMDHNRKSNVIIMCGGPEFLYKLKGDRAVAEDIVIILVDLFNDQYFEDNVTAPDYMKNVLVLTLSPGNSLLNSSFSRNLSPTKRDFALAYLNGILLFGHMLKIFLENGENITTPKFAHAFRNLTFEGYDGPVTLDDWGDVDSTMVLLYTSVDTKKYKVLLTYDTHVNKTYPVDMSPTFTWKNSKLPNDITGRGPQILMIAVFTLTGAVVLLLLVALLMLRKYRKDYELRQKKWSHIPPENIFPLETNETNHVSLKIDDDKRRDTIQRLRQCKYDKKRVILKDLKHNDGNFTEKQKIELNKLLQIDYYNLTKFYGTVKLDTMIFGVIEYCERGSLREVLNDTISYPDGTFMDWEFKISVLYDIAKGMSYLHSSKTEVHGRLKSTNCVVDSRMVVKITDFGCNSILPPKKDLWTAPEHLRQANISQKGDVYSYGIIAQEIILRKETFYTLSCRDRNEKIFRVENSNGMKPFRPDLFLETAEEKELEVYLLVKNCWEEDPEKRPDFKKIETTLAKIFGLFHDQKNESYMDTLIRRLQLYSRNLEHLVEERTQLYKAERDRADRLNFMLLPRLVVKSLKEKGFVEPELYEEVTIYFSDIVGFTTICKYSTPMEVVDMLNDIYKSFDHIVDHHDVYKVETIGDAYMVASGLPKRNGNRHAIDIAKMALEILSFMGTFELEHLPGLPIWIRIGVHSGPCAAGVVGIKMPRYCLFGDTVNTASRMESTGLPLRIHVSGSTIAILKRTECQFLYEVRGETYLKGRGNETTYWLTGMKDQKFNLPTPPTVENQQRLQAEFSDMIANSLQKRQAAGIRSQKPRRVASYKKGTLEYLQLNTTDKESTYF

Molecules are shown by their SMILES.

Assay [1] addresses T1, guanylate cyclase-C (GC-C) (Homo sapiens, UniProt P25092). Nature of the assay: cGMP response in T84 cells (GC-C agonist activity). The class given is cell-based. Also on record: tested for guanylate cyclase-C (GC-C) agonist activity in T84 cells; endogenous in cells; host or cells: T84 cells. As for the experimental part: Linaclotide and Cys1-IMD were tested for guanylate cyclase-C (GC-C) agonist activity in T84 cells as follows. In each well of a 96-well plate, approximately 200,000 T84 cells/well was first incubated with 1 mM 3-isobutyl-1-methylxanthine (IBMX) in 0.18 mL of Dulbecco's modified Eagle's medium (DMEM) for 10 minutes at 37° C. Each peptide was diluted to final concentrations ranging from 0.1 to 10,000 nM, and 0.02 mL of each dilution was added in duplicate to a 96-well plate containing the T84 cells, for a final volume of 0.20 mL per well. The peptide reactions were incubated for 30 min at 37° C. Following the incubation, the supernatants were removed and discarded and the cells were lysed with cold 0.1 M hydrochloric acid (HCl) for 30 min on ice. The cell debris was removed by centrifugation and the concentration of guanosine 3′,5′-cyclic monophosphate (cyclic GMP) in each lysate was determined using liquid chromatography with tandem mass spectrometry. The data were used to construct dose-response curves and calculate half-maximal effective concentration (EC50) values for each test article.

Assay [2] concerns the target T1, guanylate cyclase-C (GC-C). Nature of the assay: Competitive radioligand ([125I]-pSTa) binding assay on T84 cells. Further details: cell-surface GC-C receptors on human colonic epithelial (T84) cells; endogenous in cells; host or cells: T84 human colonic epithelial cells. To be noted: competition with 170 pM [125I]-pSTa for cell-surface GC-C receptors on T84 cells; read-out: inhibition constant (Ki), relative binding affinity. As for the experimental part: The relative binding affinities of linaclotide and Cys1-IMD to the guanylate cyclase-C receptor (GC-C) were determined using a competitive-binding assay in which the peptides competed with a known GC-C agonist, porcine-derived heat-stable enterotoxin (pSTa), for binding sites on cell-surface GC-C receptors on human colonic epithelial (T84) cells. The pSTa was radiolabeled with ^125I to enable measurement of its receptor binding. The competitive-binding assay was performed by adding various concentrations of each peptide (0.1 to 3,000 nM) to 0.20 mL reaction mixtures containing Dulbecco's modified Eagle's medium (DMEM), 0.5% bovine serum albumin (BSA), 2.0×10^5 T84 cells, and 170 pM [^125I]-pSTa (200,000 cpm). The data were used to construct competitive radioligand-binding curves and determine the relative binding affinities of linaclotide and Cys1-IMD, as measured by their IC50 and Ki values.

A word on the EC50: it is the concentration that produces a half-maximal response. Read a high EC50 as weaker potency. What is called Ki is a dissociation constant, usually derived from enzyme kinetics or from competition with a known ligand. In assay [1], `C[C@@H]1NC(=O)[C@@H]2CCCN2C(=O)[C@H](CC(N)=O)NC(=O)[C@@H]2CSSC[C@@H]3NCN(C3=O)[C@H]3CSSC[C@H](NC1=O)C(=O)N[C@@H]([C@@H](C)O)C(=O)NCC(=O)N[C@H](C(=O)N[C@@H](Cc1ccc(O)cc1)C(=O)O)CSSC[C@H](NC(=O)[C@H](Cc1ccc(O)cc1)NC(=O)[C@H](CCC(=O)O)NC3=O)C(=O)N2` [Cys1-IMD] displayed an EC50 of 172 ± 32 nM. The inhibitory constant (Ki) in assay [2] is 1.4 ± 0.5 nM.
